Results: US20090263523A1, “Enhancer of Cholinesterase Activity” (published 2009)

Columns and labels:
Conditions in all cases: male ddY mice, GA 1200 mg/kg/day, CP 8 mg/kg/day
[1] = test system: glutamate oxaloacetate transaminase(GOT); test: Serum glutamate oxaloacetate transaminase activity in mice after 4 weeks oral administration of CP and/or GA
[2] = test system: lactate dehydrogenase(LDH); test: Serum lactate dehydrogenase activity in mice after 4 weeks oral administration of CP and/or GA
[3] = test system: Cholinesterase(ChE); test: Serum cholinesterase activity in mice after 4 weeks oral administration of CP and/or GA
[4] = test system: glutamate pyruvate transaminase(GPT); test: Serum glutamate pyruvate transaminase activity in mice after 4 weeks oral administration of CP and/or GA
[5] = serum 24 h after final administration, mean±SE, 5 mice

SMILES: CCOP(=S)(OCC)Oc1nc(Cl)c(Cl)cc1Cl
- Effect on serum GOT (in words) [1]: slightly increased
- Enzymic activity in serum, GOT [1, 5]: 106.9 ± 30.7 IU/L
- Effect on serum LDH (in words) [2]: slightly increased
- Enzymic activity in serum, LDH [2, 5]: 527.9 ± 35.1 IU/L
- Effect on serum ChE activity (in words) [3]: remarkably decreased
- Enzymic activity in serum, ChE [3, 5]: 9.7 ± 3.2 IU/L
- Effect on serum GPT (in words) [4]: slightly increased
- Enzymic activity in serum, GPT [4, 5]: 8.0 ± 1.2 IU/L
